Results taken from PMC6393897, “An LC-MS/MS Method for Simultaneous Determination of the Toxic and Active Components of Cortex Periplocae in Rat Plasma and Application to a Pharmacokinetic Study” (International Journal of Analytical Chemistry, 2019).

Test: Pharmacokinetic study in rats after oral administration of cortex periplocae extract (plasma LC-MS/MS)
Conditions: rat, in vivo, male Sprague-Dawley rats, oral cortex periplocae extract 18.9 g/kg, n = 6, mean ± SD
Procedure: The pharmacokinetic study was conducted in accordance with the Guidelines for the Care and Use of Laboratory Animals and approved by the Animal Ethics Committee of Tianjin University of Traditional Chinese Medicine. […] Appropriate amount of cortex periplocae extract was suspended in 0.5% carboxymethyl cellulose sodium salt aqueous solution (CMC-Na) and the volume of oral administration was 1 mL/100g. […] The rats were anesthetized with ethyl ether before each withdrawal. […] For this repeat bleeds at short intervals, fluid replacement (appropriate volume of physiological saline) was required. The blood samples were immediately centrifuged 10 min at 7000 rpm. The obtained plasma was transferred into another centrifuge tube and stored at -80°C for analysis.
For the maximum drug concentration in plasma (Cmax) and the time to reach maximum drug concentration (Tmax), the values could be directly obtained. The other key parameters such as the area under the plasma concentration–time curve (AUC), elimination half-life (t1/2), and mean residence time (MRT) were calculated with DAS (Drug and Statistics 1.0, Medical College of Wannan, China) using non-compartmental model.

In the case of `C[C@]12CC[C@H](O)C[C@@]1(O)CC[C@@H]1[C@@H]2CC[C@]2(C)[C@@H](C3=CC(=O)OC3)CC[C@]12O` [periplogenin], the AUC (0-48 h, read-out: AUC(0-tn)) is reported as 207 ± 131 ng·h/mL, the AUC(0-inf) is reported as 446 ± 174 ng·h/mL and the Cmax is reported as 14.5 ± 7.75 ng/mL. For the same molecule, the Tmax was 5.78 ± 3.56 h, the half-life was 22.9 ± 17.3 h and the MRT (read-out: MRT(0-tn)) was 19.1 ± 3.64 h.
